# According to publication PMC4980839 (Archiv der Pharmazie, 2010):
# Protein sequences, listed by entry. Tags and fused reporters are not part of them. Lines headed by an entry give the natural chain unless they say otherwise; changes in a name come on top.
# UniProt Q07343: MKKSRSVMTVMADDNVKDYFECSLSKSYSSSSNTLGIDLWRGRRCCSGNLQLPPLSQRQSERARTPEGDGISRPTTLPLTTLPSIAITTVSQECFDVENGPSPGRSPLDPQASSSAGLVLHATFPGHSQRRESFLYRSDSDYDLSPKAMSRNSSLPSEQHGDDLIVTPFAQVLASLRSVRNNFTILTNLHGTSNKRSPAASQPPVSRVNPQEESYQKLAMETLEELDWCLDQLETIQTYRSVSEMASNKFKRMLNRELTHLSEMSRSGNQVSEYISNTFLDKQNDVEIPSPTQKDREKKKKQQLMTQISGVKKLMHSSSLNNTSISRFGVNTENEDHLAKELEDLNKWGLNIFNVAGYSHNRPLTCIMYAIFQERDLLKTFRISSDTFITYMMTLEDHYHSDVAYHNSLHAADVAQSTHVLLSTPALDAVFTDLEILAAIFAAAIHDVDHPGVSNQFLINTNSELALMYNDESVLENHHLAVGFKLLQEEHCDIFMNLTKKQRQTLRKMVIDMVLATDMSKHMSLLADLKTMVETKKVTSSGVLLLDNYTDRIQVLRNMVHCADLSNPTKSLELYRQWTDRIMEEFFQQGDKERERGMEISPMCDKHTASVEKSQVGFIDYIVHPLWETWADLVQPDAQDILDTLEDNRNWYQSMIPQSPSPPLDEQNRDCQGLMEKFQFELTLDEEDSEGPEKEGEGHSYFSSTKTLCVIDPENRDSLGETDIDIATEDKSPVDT
# Target: PDE4B (Homo sapiens, UniProt Q07343)
# Experiment: PDE4B inhibition
# Assay type: biochemical
compound,measurement,value
"CN1CC(=O)N2[C@H](c3ccc4c(c3)OCO4)c3[nH]c4ccccc4c3C[C@@H]2C1=O [Tadalafil, reference compound]",IC50,> 50 µM
